The values below come from ChEMBL document CHEMBL2176915, “Phenyltetrahydroisoquinoline-pyridinaldoxime conjugates as efficient uncharged reactivators for the dephosphylation of inhibited human acetylcholinesterase” (2012).

Protein sequences, listed by entry. Tags and fused reporters are not part of them. Lines headed by an entry give the natural chain unless they say otherwise; changes in a name come on top.
UniProt P22303: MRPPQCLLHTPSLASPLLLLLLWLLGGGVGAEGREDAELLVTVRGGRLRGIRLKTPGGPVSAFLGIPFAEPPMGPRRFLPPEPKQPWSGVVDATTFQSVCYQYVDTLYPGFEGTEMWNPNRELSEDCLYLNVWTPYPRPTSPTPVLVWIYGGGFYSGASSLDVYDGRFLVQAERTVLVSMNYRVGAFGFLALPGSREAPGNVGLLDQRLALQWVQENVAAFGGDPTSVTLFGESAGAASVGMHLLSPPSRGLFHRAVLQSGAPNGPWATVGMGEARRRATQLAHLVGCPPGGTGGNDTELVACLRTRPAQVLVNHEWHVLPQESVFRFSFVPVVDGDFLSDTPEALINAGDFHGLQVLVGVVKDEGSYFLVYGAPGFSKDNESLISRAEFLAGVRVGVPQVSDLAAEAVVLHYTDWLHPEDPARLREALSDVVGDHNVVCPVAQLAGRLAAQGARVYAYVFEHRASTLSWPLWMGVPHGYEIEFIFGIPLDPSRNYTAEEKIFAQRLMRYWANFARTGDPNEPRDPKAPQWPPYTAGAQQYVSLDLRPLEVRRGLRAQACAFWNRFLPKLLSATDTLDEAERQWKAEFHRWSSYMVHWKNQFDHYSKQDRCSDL

Experiment [1] deals with Acetylcholinesterase (Homo sapiens) (UniProt P22303). As to the kind of experiment: Reactivation of VX-inhibited human AChE assessed as reactivation rate constant.
For experiment [2] the target is unchanged. As to the kind of experiment: Reactivation of VX-inhibited human AChE assessed as bimolecular reactivation rate constant.
The target is the same in experiment [3]. The experiment is described as follows: Reactivation of paraoxon-inhibited human AChE assessed as reactivation rate constant.
For experiment [4] the target is unchanged. As to the kind of experiment: Reactivation of paraoxon-inhibited human AChE assessed as bimolecular reactivation rate constant.
For experiment [5] the target is unchanged. As to the kind of experiment: Reactivation of tabun-inhibited human AChE assessed as bimolecular reactivation rate constant.
For experiment [6] the target is unchanged. As to the kind of experiment: Reactivation of tabun-inhibited human AChE assessed as reactivation rate constant.

As to `COc1cc2c(cc1OC)C(c1ccccc1)N(CCCCc1cnc(/C=N/O)c(O)c1)CC2` (stereo not given), the Activity in experiment [1] came out at 0.1 min⁻¹; in experiment [2], 1.3 mM⁻¹ min⁻¹.

Consider `COc1cc2c(cc1OC)C(c1ccccc1)N(CCCCCc1ccnc(/C=N/O)c1O)CC2` (stereo not given), for which the Activity in experiment [1] turned out to be 0.28 min⁻¹; in experiment [3], 0.27 min⁻¹; in experiment [4], 6.8 mM⁻¹ min⁻¹; in experiment [5], 1 mM⁻¹ min⁻¹; in experiment [6] it was 0.08 min⁻¹; in experiment [2] it was 2.4 mM⁻¹ min⁻¹.

Take `COc1cc2c(cc1OC)C(c1ccccc1)N(CCCCc1ccc(O)c(/C=N/O)n1)CC2` (stereo not given): the Activity was found to be 0.68 min⁻¹ in experiment [1]; 1.17 min⁻¹ in experiment [3]; 19 mM⁻¹ min⁻¹ in experiment [4]; 1.7 mM⁻¹ min⁻¹ in experiment [5]; 0.045 min⁻¹ in experiment [6]; 20 mM⁻¹ min⁻¹ in experiment [2].

With `COc1cc2c(cc1OC)C(c1ccccc1)N(CCCc1ccc(O)c(/C=N/O)n1)CC2` (stereo not given), the Activity in experiment [1] turned out to be 0.45 min⁻¹; in experiment [3] it was 0.6 min⁻¹; in experiment [4], 3 mM⁻¹ min⁻¹; in experiment [5], 0.5 mM⁻¹ min⁻¹; in experiment [6] it was 0.0034 min⁻¹; in experiment [2] it was 3.8 mM⁻¹ min⁻¹.

As for `COc1cc2c(cc1OC)C(c1ccccc1)N(CCCCCCc1ccc(O)c(/C=N/O)n1)CC2` (stereo not given), the Activity was 0.29 min⁻¹ in experiment [1]; 0.168 min⁻¹ in experiment [3]; 11 mM⁻¹ min⁻¹ in experiment [4]; 1.5 mM⁻¹ min⁻¹ in experiment [5]; 0.021 min⁻¹ in experiment [6]; 7.6 mM⁻¹ min⁻¹ in experiment [2].

For `COc1cc2c(cc1OC)C(c1ccccc1)N(CCCCCc1ccc(O)c(/C=N/O)n1)CC2` (stereo not given), the Activity in experiment [1] came to 0.35 min⁻¹; in experiment [3], 0.4 min⁻¹; in experiment [4] it was 13 mM⁻¹ min⁻¹; in experiment [5], 2.7 mM⁻¹ min⁻¹; in experiment [6], 0.015 min⁻¹; in experiment [2], 58 mM⁻¹ min⁻¹.

For the compound `COc1cc2c(cc1OC)C(c1ccccc1)N(CCCCCCc1cc(C)nc(/C=N/O)c1O)CC2` (stereo not given), the Activity in experiment [1] is 0.037 min⁻¹; in experiment [5], 0.5 mM⁻¹ min⁻¹; in experiment [6], 0.028 min⁻¹; in experiment [2], 0.5 mM⁻¹ min⁻¹.

Turning to `COc1cc2c(cc1OC)C(c1ccccc1)N(CCCCCc1cnc(/C=N/O)c(O)c1)CC2` (stereo not given), the Activity in experiment [2] is 0.2 mM⁻¹ min⁻¹.

As for `COc1cc2c(cc1OC)C(c1ccccc1)N(CCCCc1ccnc(/C=N/O)c1O)CC2` (stereo not given), the Activity in experiment [1] was 0.31 min⁻¹; in experiment [3] it was 0.095 min⁻¹; in experiment [4], 2.5 mM⁻¹ min⁻¹; in experiment [2] it was 0.9 mM⁻¹ min⁻¹.

Regarding `COc1cc2c(cc1OC)C(c1ccccc1)N(CCOCCCc1ccc(O)c(/C=N/O)n1)CC2` (stereo not given), the results for the Activity in experiment [5], in experiment [6] and in experiment [2] were 1.5 mM⁻¹ min⁻¹, 0.006 min⁻¹ and 3 mM⁻¹ min⁻¹, respectively.

On to `COc1cc2c(cc1OC)C(c1ccccc1)N(CCCc1ccnc(/C=N/O)c1O)CC2` (stereo not given), for which, in experiment [2], the Activity was 0.8 mM⁻¹ min⁻¹.
